These are literature values, as cited in US20100278932A1, “POLYMER MICELLES CONTAINING SN-38 FOR THE TREATMENT OF CANCER” (Intezyne Technologies, Incorporated, priority 2009, published 2010).

The series deals with various cancer cells. The conditions noted are these: in vitro; cited from earlier work.

With `CCc1c2c(nc3ccc(O)cc13)-c1cc3c(c(=O)n1C2)COC(=O)[C@]3(O)CC` [SN-38, 7-ethyl-10-hydroxycamptothecin], the “cytotoxic activity, potency relative to CPT-11” value was “up to 1,000 fold”.
